Values of other authors as cited in patent publication US20190026423A1, “Cycle Closure Estimation of Relative Binding Affinities and Errors” (Schrödinger, LLC, priority 2013, published 2019).

Target: CDK2-cyclin A receptor (Homo sapiens, UniProt P24941)
Settings: experimental binding free energy
[1] = 6 ligands with crystal structures
[2] = ligands without crystal structures

c1ccc(Nc2nc(OCC3CCCCC3)c3nc[nH]c3n2)cc1 [Compound 1h1q]
ΔG(EXP) [1]: -8.18 kcal/mol

CS(=O)(=O)c1ccc(Nc2nc(OCC3CCCCC3)c3nc[nH]c3n2)cc1 [Compound 30]
ΔG(EXP) [2]: -9.81 kcal/mol

C[S+]([O-])c1ccc(Nc2nc(OCC3CCCCC3)c3nc[nH]c3n2)cc1 (centres unmarked) [Compound 31]
ΔG(EXP) [2]: -9.54 kcal/mol

CNS(=O)(=O)c1ccc(Nc2nc(OCC3CCCCC3)c3nc[nH]c3n2)cc1 [Compound 28]
ΔG(EXP) [2]: -11.11 kcal/mol

CS(=O)(=O)c1ccc(Nc2nc(OCC3CCCCC3)c3nc[nH]c3n2)cc1 [Compound 1h1s]
ΔG(EXP) [1]: -11.25 kcal/mol

Where two headings read alike, the source gives them in different places.
